Data on 1 compound can be found in ChEMBL document CHEMBL4808212 (Bioorg Med Chem Lett, 2021).

The test concerns the target Replicase polyprotein 1ab (Severe acute respiratory syndrome coronavirus 2, UniProt P0DTD1). The test is described as follows: Inhibition of SARS-CoV-2 3CLpro preincubated for 30 mins followed by addition of (Dabcyl)KTSAVLQSGFRKM(Glu) peptide substrate and measured after […] by FRET assay.

As a reminder, the IC50 is the point on the concentration scale where inhibition reaches its midpoint. Lower therefore signals greater potency. `CCC[C@@H](C=O)NC(=O)[C@H](CC(C)C)NC(=O)[C@H](CC(C)C)NC(=O)OCc1ccccc1` displayed an IC50 above 10 µM.
